Assay results as given in patent publication US9855245B2, “Methods for improving lipid profiles using atrasentan” (AbbVie Inc., priority 2013, dated 2018).

How the values were obtained:
[1] = test system: subjects with type 2 diabetes and nephropathy; assay: Example 1: Phase 2b randomized, double-blind, placebo-controlled 12-week clinical study
[2] = test system: subjects with type 2 diabetes and nephropathy; assay: Example 3: Phase 2b randomized, double-blind, placebo-controlled 8-week study with thoracic bioimpedance; format: in vivo, human
[3] = test system: subjects with type 2 diabetes and nephropathy; assay: Example 2: Phase 2b randomized, double-blind, placebo-controlled 12-week study conducted in Japan
[4] = both doses (0.75 mg and 1.25 mg), within 2 weeks, sustained over 12 weeks

Compound: CCCCN(CCCC)C(=O)CN1C[C@H](c2ccc3c(c2)OCO3)[C@@H](C(=O)O)[C@@H]1c1ccc(OC)cc1 [Atrasentan, (2R,3R,4S)-4-(1,3-benzodioxol-5-yl)-1-[2-(dibutylamino)-2-oxoethyl]-2-(4-methoxyphenyl)pyrrolidine-3-carboxylic acid]
- mean systolic blood pressure, differences from placebo ([1]; 0.75 mg and 1.25 mg): not statistically significant at any time point
- mean ambulatory diastolic blood pressure, differences from placebo ([1]; 0.75 mg and 1.25 mg, Weeks 6 and 10): statistically significant at both time points
- mean eGFR change from baseline, atrasentan groups vs placebo ([1]; 0.75 mg and 1.25 mg, each postbaseline time point): no statistically significant differences
- reduction in UACR [1, 4]: more than 30%
- mean eGFR, placebo vs either atrasentan treatment group (repeated-measures analysis) ([2]; 0.5 mg and 1.25 mg): no statistically significant differences
- change from baseline to Week 8 in log-transformed UACR (primary endpoint), treatment differences ([2]; 0.5 mg and 1.25 mg vs placebo): not statistically significantly different from placebo
- reduction in UACR ([2]; both doses (0.5 mg and 1.25 mg), within 2 weeks, sustained over 8 weeks for 1.25 mg): approximately 30%
- mean diastolic blood pressure, differences between atrasentan and placebo ([3]; 0.75 mg and 1.25 mg): not statistically significant
- mean systolic blood pressure, differences between treatment groups ([3]; 0.75 mg and 1.25 mg): no statistically significant differences between treatment groups
- reduction in UACR [3, 4]: more than 30%
